Earlier results on two molecules are cited in PubChem BioAssay AID1811 (Shanghai Institute of Organic Chemistry, 2009).

This series concerns heat shock protein 90 alpha. The series is described as follows: PubChem AID 1811. The following applies: PDB complex binding affinities from literature.

The other results are listed elsewhere or left out. Active and inactive are the calls of the source. Unless stated, no cut-off for active and inactive is given here.

Consider `O=S(=O)(Nc1ccc(O)c(-c2c(O)ccc3ccccc23)c1)c1cc(Cl)ccc1Cl`, for which the result was active. In the case of `CS(=O)(=O)c1ccc(CN2CCN(c3cn[nH]c3-c3cc(Cl)c(O)cc3O)CC2)cc1`, the outcome was active.
